Screens deposited in PubChem by ICCB-Longwood Screening Facility, Harvard Medical School.
GIV Gai3 FP: inhibitors of GIV GBA-motif binding to rat Galpha-i3; P08753; Galpha-i3/FITC-GIV peptide fluorescence polarization, 90 min; hits give low values; scaled: aluminum fluoride 0%, vehicle 100%; percent of control (FP), % (test concentration not listed); 0.42% of 210,000 active; AID 1224905;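 active = replicate mean at 85% of control or lower, very high polarization wells dropped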;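 also: wells of about 15 µL received 100 nL stock; the first replicate is given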
HCMV NEC inh: inhibitors of HCMV UL50-UL53 nuclear egress complex interaction. AID 1918969. HTRF UL50-UL53 interaction, normalized percent inhibition. 190,000 compounds, 0.15% hits. inhibition, % (test concentration not listed); in the data active = inhibition above about 27%, passing the limit was not always enough
Starred values were filed as active, the others as inactive; . = no result. Sampled rows, rich in hits. Any-hit rate of the full collection: about 0.43%.

SMILES | GIV Gai3 FP | HCMV NEC inh
CCCCN1C(=O)/C(=C/c2c(N3CCN(CCO)CC3)nc3ccccn3c2=O)SC1=S | 248.8 | .
CCCN1C(=O)/C(=C/c2c(N3CCCC3)nc3ccccn3c2=O)SC1=S | -60.5* | -36.1
C=CCN1C(=O)/C(=C/c2c(N3CCCCC3)nc3ccccn3c2=O)SC1=S | -36.2* | .
CN1CCN(c2nc3ccccn3c(=O)c2/C=C2\SC(=S)N(Cc3ccco3)C2=O)CC1 | 161.9 | -10.6
CC1CCN(c2nc3ccccn3c(=O)c2/C=C2/SC(=S)N(C3CCCCC3)C2=O)CC1 | 183.3 | .
COCCCN1C(=O)/C(=C/c2c(N3CCN(C)CC3)nc3c(C)cccn3c2=O)SC1=S | 61.7* | -44.6
Cc1cccn2c(=O)c(/C=C3\SC(=S)N(CCc4ccccc4)C3=O)c(N3CCCC3)nc12 | 104.4 | -8.6
COc1ccccc1-c1cc2n(C)c(C)c(CCC(=O)NCC3CCCO3)c(=O)n2n1 (configuration not stated) | 107.4 | .
Cc1ccsc1/C=C1/N=C(c2ccccc2)OC1=O | 105.8 | -4.8
CCN1CCN(c2ccc(NS(=O)(=O)c3ccc(Br)cc3)c(C(=O)O)c2)CC1 | 110.1 | -14.8
COc1cccc(N2CCN(C(=O)c3cc(S(=O)(=O)N4CCCCC4)cn3C)CC2)c1 | 109.2 | -2.8
C=CCN1C(=O)/C(=C\c2cccs2)SC1=S | . | -15.5
C=CCN1C(=O)/C(=C/c2c(Sc3ccccc3)nc3ccccn3c2=O)SC1=S | -36.2* | .
O=c1c2ccccc2n2c(-c3ccc(Cl)cc3)nnc2n1CCc1ccccc1 | 100.3 | 58.6*
O=c1c2ccccc2n2c(-c3ccc(F)c(F)c3)nnc2n1CCc1ccccc1 | 95.4 | -7.0
NCCSCc1ccccc1 | . | -27.6
O=C(C1CCCN(c2nc3cccnc3s2)C1)N1CCN(c2ccccc2)CC1 (configuration not stated) | 105.7 | -34.3
O=S(=O)(/N=C1\C=C2N(CCO)CCOC2(O)c2ccccc21)c1ccc(F)cc1 (configuration not stated) | 95.6 | 39.7*
O=S(=O)(/N=C1\C=C2N(CCO)CCOC2(O)c2ccccc21)c1ccccc1 (configuration not stated) | 95.5 | .
O=c1c2c(-c3ccc(Cl)cc3)csc2ncn1CC1CCCO1 (configuration not stated) | 102.4 | -8.9

Shown as a hit in GIV Gai3 FP, of those listed so far:
Structure,GIV Gai3 FP
CCCN1C(=O)/C(=C/c2c(N3CCCC3)nc3ccccn3c2=O)SC1=S,-60.5*
C=CCN1C(=O)/C(=C/c2c(N3CCCCC3)nc3ccccn3c2=O)SC1=S,-36.2*
COCCCN1C(=O)/C(=C/c2c(N3CCN(C)CC3)nc3c(C)cccn3c2=O)SC1=S,61.7*
C=CCN1C(=O)/C(=C/c2c(Sc3ccccc3)nc3ccccn3c2=O)SC1=S,-36.2*

Continuation:
SMILES | GIV Gai3 FP | HCMV NEC inh
O=C1c2cnccc2CN1c1cc(F)ccc1F | 108.0 | 34.9*
COC(=O)c1sccc1N1Cc2ccncc2C1=O | 104.9 | -29.6
Cc1ccc2oc(=O)n(CC/C(N)=N/OC(=O)c3ccccc3)c2c1 | 99.4 | -37.8
COC(=O)c1sc(-c2ccc(C(C)(C)C)cc2)cc1N | 107.5 | 2.7
O=C(c1cc2c(=O)[nH]c3ccccc3c2s1)N1CCCC1 | 57.6* | .
O=C(c1cc2c(=O)[nH]c3ccccc3c2s1)N1CCN(c2ccc(F)cc2)CC1 | 100.1 | -22.8
CCN(Cc1ccccc1)S(=O)(=O)c1ccc(S(=O)(=O)N(Cc2ccccc2F)CC2CCCO2)cc1 (configuration not stated) | 105.5 | -23.5
Cc1ccccc1-n1c(=S)sc2c1nc(SCc1cccc([N+](=O)[O-])c1)n1c3ccccc3nc21 | 109.3 | .
CC1=NN(c2ccccc2)C(=O)/C1=C\c1ccc(Oc2ccc([N+](=O)[O-])cc2[N+](=O)[O-])cc1 | 97.0 | 53.8*
COc1ccc(/C=C2\C(=O)N(c3ccccc3)N=C2C)cc1 | 109.3 | 43.3*
CC1=NN(c2ccccc2)C(=O)/C1=C\c1ccc(N(C)C)cc1 | 105.0 | -21.3
CN1C(=O)C(=Cc2ccc(Oc3ccc([N+](=O)[O-])cc3[N+](=O)[O-])cc2)C(=O)N(C)C1=O | 93.0 | -63.3
Cc1cc2nc(NCCOc3ccccc3)c3ccccc3n2n1 | . | 5.2
O=C1CCCN1c1ccc(S(=O)(=O)Nc2ccc(Cc3ccncc3)cc2)cc1 | 108.7 | 1.8
CC(C)C(=O)N1CCc2c(c(C(=O)N3CCC(C(=O)N4CCOCC4)CC3)nn2C)C1 | 105.0 | .
O=C1NC(C(=O)O)CS1 (configuration not stated) | . | -84.9
O=C(Nc1ccc2nc3c(=O)[nH]c(=O)[nH]c3nc2c1)C(F)(F)F | -15.9* | .
Cc1ccc2nc3[nH]c(=O)[nH]c(=O)c3nc2c1 | 102.6 | .
COc1cc(NC(=O)c2ccc(Oc3ccnc(-c4ccc(F)cc4)n3)cc2)cc(OC)c1 | 99.3 | .
O=S(=O)(c1ccc(N=Cc2c(O)ccc3ccccc23)cc1)N1CCCCC1 | . | 76.1*

Random excerpt: 2 entries already listed, in no set order.
SMILES | GIV Gai3 FP | HCMV NEC inh
Cc1ccc2nc3[nH]c(=O)[nH]c(=O)c3nc2c1 | 102.6 | .
CCN1CCN(c2ccc(NS(=O)(=O)c3ccc(Br)cc3)c(C(=O)O)c2)CC1 | 110.1 | -14.8

Additional records.
SMILES | GIV Gai3 FP | HCMV NEC inh
O=S(=O)(/N=C/c1c(O)ccc2ccccc12)c1ccccc1 | 98.5 | .
O=c1[nH]c(=O)n(-c2ccccc2)c(O)c1C=Nc1ccc(S(=O)(=O)N2CCCCC2)cc1 | 106.3 | -8.4
NS(=O)(=O)c1ccc(N=Cc2c(O)ccc3ccccc23)cc1 | . | 96.6*
CC(C)c1cc(C2CCCN2C(=O)NC2CCCCC2)on1 (configuration not stated) | 101.8 | .
Cc1cc(N2CCCC2)ccc1NC(=O)CNC(=O)C1CCCCC1 | . | -2.8
Nc1cc(S(=O)(=O)C(F)(F)F)ccc1Cl | . | -13.9
O=P1(C(Nc2ccc(Br)cc2)c2ccc(O)cc2)OCCCO1 (configuration not stated) | 107.5 | .
CCCS(=O)(=O)N1N=C(c2ccc(Cl)cc2)CC1c1ccco1 (configuration not stated) | 182.3 | -5.9
CCCS(=O)(=O)N1N=C(c2ccc(C)cc2)CC1c1ccco1 (configuration not stated) | 7.4* | -10.3
Cc1cccc(N2C(=O)c3cccc4c(N5CCNCC5)ccc(c34)C2=O)c1 | 87.8 | -97.6
O=C1c2cccc3c(N4CCNCC4)ccc(c23)C(=O)N1c1ccc(Cl)cc1 | -91.0* | -72.8
Cc1n[nH]c(C)c1N1C(=O)c2cccc3c(N)ccc(c23)C1=O | -42.3* | .
Nc1ccc2c3c(cccc13)C(=O)N(c1ccccc1)C2=O | -30.3* | -55.8
CN(C)c1ccc2c3c(cccc13)C(=O)N(c1ccccc1)C2=O | 101.1 | -23.0
Cc1n[nH]c(C)c1N1C(=O)c2cccc3c(Br)ccc(c23)C1=O | 99.1 | -134.6
CN1CCC(N(C)C(C(=O)Nc2ccc(F)cc2)c2ccccc2)CC1 (configuration not stated) | . | -2.7
CCc1cc(=O)[nH]c(Nc2ccccc2)n1 | 110.4 | -7.4
CCCc1cc(=O)[nH]c(Nc2ccccc2)n1 | 107.4 | 76.7*
CN1/C(=C\C=C(C#N)C#N)C(C)(C)c2ccccc21 | . | 14.3
CC[n+]1c(/C=C/C=C2/N(C)c3ccccc3C2(C)C)sc2ccccc21 | -20.0* | -9.9
O=C(NCCS(=O)(=O)N1CCN(c2ccccc2)CC1)C1c2ccccc2Oc2ccccc21 | 107.0 | -6.0
CCOC(=O)c1ccc2c(c1)n(CCCS(=O)(=O)[O-])c(/C=C/C=C1\N(CC)c3cc(Cl)c(Cl)cc3N1CCOc1ccccc1)[n+]2CC | 112.0 | .
CCOC(=O)c1ccc2c(c1)N(CCCS(=O)(=O)O)/C(=C/C=C/c1n(CCCS(=O)(=O)[O-])c3cc(C(=O)OCC)ccc3[n+]1CC)N2CC | -62.4* | .
CCO/C=C1/C(=O)N(Cc2ccc(OC)cc2)C(=O)c2ccccc21 | . | 57.4*
CCO/C=C1/C(=O)N(c2ccc(Cl)cn2)C(=O)c2ccccc21 | . | -21.6
O=C1c2ccccc2C(=O)N1Cc1ccccc1 | 103.5 | -14.3
CCO/C=C1/C(=O)NC(=O)c2ccccc21 | . | 98.4*
CCO/C=C1\C(=O)N(C)C(=O)c2ccccc21 | . | 76.7*
CCOc1ccc(/C=C2/C(=O)Nc3ccccc32)cc1 | . | 10.2
